In the library only some 1.4% were active in any assay of this set; here they are far more common.
CCT modulator = cytosolic chaperonin activity modulation; purified chaperonin ATPase assay, HTRF ADP detection, 30 min; activity change, % (test concentration not listed), hits read low; 360,000 compounds, 0.3% hits; in the data active means activity change below about -30%; further: on the % scale 0 is the no-effect control and ±100 the full control effect
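Enzyme 40 or 20 nM (batch-dependent) in Tris pH 7.4/KCl/MgCl2/DTT; cpd 76 uM single point; ATP 10 uM; 30 min 37 °C; Transcreener ADP HTRF detection, 30 min RT; ratio 665/615.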
MmCpn inh = inhibitors of Methanococcus maripaludis chaperonin TRiC (MmCpn). 330,000 compounds, 0.031% hits. Potency, µM (doses to about 76.9 µM), for the others: top-dose activity, negative = inhibition, most hits filed as inhibitors. purified Mm-Cpn ATPase, ADP Transcreener TR-FRET; active means well fitted inhibition curve with a large enough effect; inconclusive means small, poorly fitted or top-dose-only effect; further: potency means the concentration at half of the fitted maximal effect; on the % scale 0 is the no-effect control and ±100 the full control effect; nearly all actives have a fitted effect of over 80% in size
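Compound-treated chaperonin, 25 nM final, turns over 10 uM ATP at 37°C for 30 min following a 10 min preincubation; ADP generated competes with ADP-d2 for Eu-cryptate antibody, lowering FRET.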
KCNH2 3.1 inh = inhibitors of human KCNH2 3.1 potassium channel isoform; AID 720553; 340,000 compounds, 0.95% hits; U2OS KCNH2 3.1, thallium flux FluxOr; hits give low values; activity change, % (tested at about 1.8 µM);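 active means maximum activity change below -70%; inconclusive means maximum activity change from -70% to -50%; inactive means maximum activity change above -50%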;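 further: thallium influx rate constant from kinetic fluorescence after stimulation buffer; on the % scale 0 is the no-effect control and ±100 the full control effect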
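Virally transduced U2OS (3.1 isoform, 4 h infection in dark at RT) → overnight 37 C → FluxOr + Red40 in HBSS/HEPES, 45 min → stimulation buffer, 2 min kinetic read → rate constant vs DMSO controls.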
Rango release inh = prevents RanGTP from dissociating the Rango-importin beta complex. O95149+P62826. Biochemical FRET Rango-importin beta, RanGTP-induced dissociation. 340,000 compounds, 0.071% hits. Potency, µM (series often up to 46.1 µM), for the others: at the highest dose activity change, negative = inhibition; further: potency means the concentration at half of the fitted maximal effect; % of control where 0% means no effect; nearly all actives have a fitted effect of over 45% in size
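Rango/importin beta premix (0.1/0.25 uM final), PBS + 1 mM DTT + 0.02% Tween-20 + 0.1% BSA; cpd 5 min RT; FRET pre-read; + RanGTP-RCC1 (0.6 uM Ran, 2 mM GTP, 0.2 uM RCC1); 45 min RT; FRET post-read, ex 430, em 486/530 nm.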
Rango-impB inh = inhibitors of Rango-importin beta complex formation. Q14974. Rango CFP/YFP FRET sensor + importin beta, 45 min. Potency, µM (highest dose often 92.2 µM), without a hit: at the highest dose inhibition of complex formation. 340,000 compounds, 0.031% hits. AID 540263;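 further: potency means the concentration at half of the fitted maximal effect; 0% = DMSO wells and 100% = buffer wells lacking importin beta; nearly all actives have a fitted effect of over 15% in size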
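Inhibition scored from the CFP 486 nm/YFP 530 nm FRET ratio 45 min after adding 0.125 microM importin beta to 50 nM Rango biosensor preincubated 5 min with compound (room temperature, PBS with DTT, Tween-20, BSA). No-importin wells as positive control.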
KCNH2 WT inh = inhibitors of human wildtype KCNH2 potassium channel; 340,000 compounds, 0.37% hits; U2OS, BacMam KCNH2, thallium flux FluxOr; hits give low values; AID 720551; activity change, % at 1.84 µM;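 active means maximum activity change below -70%; inconclusive means maximum activity change between -70% and -50%; inactive means maximum activity change above -50%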; further: on the % scale 0 is the no-effect control and ±100 the full control effect
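U2OS cells were transduced with wild-type KCNH2 virus (2.03 x 10^8 / mL) for 4 h at room temperature, then cultured overnight at 37 C. Thallium flux was read with FluxOr dye. Rate constants were normalized to DMSO controls.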
* = called active by the depositor; ? = inconclusive; . = no result. Unless noted, the call rests on the fitted dose curve.

SMILES | CCT modulator | MmCpn inh | KCNH2 3.1 inh | Rango release inh | Rango-impB inh | KCNH2 WT inh
CCOC(=O)C(CC)n1cnc2c(nnn2-c2ccc(F)cc2)c1=O (centres undefined) | 2.1 | -3.7% | -32.0 | ? | -0.8% | -0.2
CCn1c(C)nc2cc(S(=O)(=O)C(F)(F)C(F)C(F)(F)F)ccc21 (centres undefined) | -48.2* | 0.0% | -1.1 | 28.3% | -4.6% | 11.1
CCn1c(C)nc2cc(S(N)(=O)=O)ccc21 | 0.5 | -23.6% | 8.5 | 13.5% | -0.1% | 0.1
COc1cc(NC(=O)c2cc(-c3ccco3)on2)c(OC)cc1Cl | -1.0 | -5.5% | -80.8* | -2.7% | 3.5% | -26.0
Cc1cc(Cl)ccc1OCC(=O)NNC(=O)c1cccs1 | -0.7 | . | -3.9 | 1.7% | -2.9% | 4.1
Cc1cc(Cl)ccc1OCC(=O)NNC(=O)c1ccco1 | -38.9* | 1.7% | 1.0 | 0.0% | 3.4% | -2.0
COc1ccc(NC(=O)c2cc(Cl)ccc2NC(=O)c2ccco2)c(OC)c1 | 1.4 | 2.4% | -70.1* | 22.2% | -2.4% | -81.8*
O=C(Nc1ccnn1C1CCN(Cc2cccc(O)c2)CC1)C1CCCC1 | -2.7 | -0.4% | . | 6.4% | 0.7% | 36.7
CC(=O)Nc1ccc(-c2csc(N3CCC(C(N)=O)CC3)n2)cc1 | . | -2.7% | . | . | . | .
CCc1ccc(/C=C2\Oc3cc(OS(C)(=O)=O)ccc3C2=O)cc1 | -7.1 | -0.5% | . | 8.2µM* | ? | 38.5
O=C(CCC1CCCN(Cc2cccc(Cl)c2)C1)NCc1ccccc1F (centres undefined) | 2.0 | -0.5% | -4.7 | -0.2% | -3.3% | 8.4
C[N+](C)(C)CC(O)CC(=O)O (centres undefined) | 0.8 | 1.3% | 13.5 | -4.5% | 0.7% | -295.1*
CC(O)CC(=O)O (centres undefined) | 0.9 | -0.2% | 4.1 | 9.6% | -2.2% | 3.4
O=C(c1ccc(Br)cc1)N1CCC2(CC1)NCCc1[nH]cnc12 | 0.8 | 1.7% | -87.3* | -26.4% | 0.9% | ?
CC(C)(C)c1ccc(C(=O)N2CCC3(CC2)NCCc2[nH]cnc23)cc1 | 0.1 | -1.0% | 4.1 | -7.2% | 0.1% | -4.6
CCOc1ccc(C(=O)N2CCC3(CC2)NCCc2[nH]cnc23)cc1 | -4.1 | -0.4% | -89.4* | 9.8% | 0.7% | -13.7
COc1ccc(/C(O)=C2/C(=O)C(=O)N(CCCN(C)C)C2c2cccc(Cl)c2)cc1OC (centres undefined) | 0.4 | -3.3% | -38.1 | -17.0% | 0.6% | -5.9
COC(=O)c1ccc(-n2c(C)cc(C(=O)CSc3ccc(NC(C)=O)cc3)c2C)cc1 | -0.2 | -2.2% | -119.6* | 2.6% | -0.5% | 2.3
O=C1CN=C(Nc2ccccc2Cl)N1Cc1ccc2c(c1)OCO2 | -1.3 | -0.7% | -1.2 | 0.0% | 1.7% | 2.3
COc1ccc(-c2sc(C(=O)c3ccc(Cl)cc3Cl)cc2CC(=O)O)cc1 | -1.5 | 50.1µM* | 6.3 | ? | ? | -2.7
O=C(O)Cc1ccc(C(=O)c2ccc(Cl)cc2Cl)s1 | -2.0 | -0.1% | . | -5.9% | -2.3% | -17.3
Cc1cc(-c2ccccc2)nc(=O)[nH]1 | -0.5 | -0.8% | -192.5* | -11.1% | -4.7% | -166.9*
O=c1nc(-c2ccccc2)cc(C(F)(F)F)[nH]1 | -4.8 | -0.9% | -11.5 | 0.9% | 6.8% | -3.8
COc1ccc(S(=O)(=O)NCC(c2ccc(F)cc2)N2CCOCC2)cc1Br (centres undefined) | 1.9 | 0.9% | 2.0 | 6.3% | -2.7% | 3.3
Cc1nnc(SC(C)C(=O)NC2CCCCC2)[nH]c1=O (centres undefined) | 1.6 | . | 7.8 | 6.9% | 1.0% | 7.0
CCOc1ccc(NCc2cccn2-c2nnc(N3CCC(C(=O)NCCCN4C(C)CCCC4C)CC3)s2)cc1 (centres undefined) | -0.8 | -5.4% | 13.2 | -8.0% | -4.0% | -228.0*
Cc1ccccc1C(=O)NC(CC(C)C)C(=O)OCC(=O)c1c(N)n(C)c(=O)n(C)c1=O (centres undefined) | 0.7 | -3.9% | -1.9 | -5.9% | 1.5% | 2.5
Cn1nc(-c2ccccc2)c(C(=O)Nc2ccc(Cl)cc2)c1Cl | 0.1 | 1.5% | -4.2 | -16.1% | 2.3% | -10.6
Cn1nc(-c2ccccc2)c(C(=O)Nc2ccc(C(F)(F)F)cc2)c1Cl | 2.4 | 1.3% | -73.3* | 3.7% | -9.0% | -4.9
CCCCCCCCSc1nnc(CSc2nc3nc(C)cc(C)n3n2)o1 | 1.1 | 0.6% | 11.8 | 2.9% | 0.0% | 1.1
CNC(=S)N1N=C(c2ccc(C)cc2)CC1c1ccc(N(C)C)cc1 (centres undefined) | 0.4 | 25.1µM* | -1.2 | ? | ? | -1.7
CC(=O)N1[C@H](C)C=C[C@]1(Cc1ccccc1)C(=O)O | -1.5 | 1.1% | 8.1 | 1.3% | -2.8% | -0.2
c1ccc(Cc2noc(CN3CCN(C4CCc5ccccc5C4)CC3)n2)cc1 (centres undefined) | -2.7 | -0.1% | -126.9* | 11.5% | ? | 33.6
c1ccc(Cc2noc(CN3CCCN(C4Cc5ccccc5C4)CC3)n2)cc1 | 2.4 | 0.9% | ? | 1.2% | -3.9% | -23.1
Cc1ccc(N(C(=O)c2csnn2)C(C(=O)NC2CCCCC2)c2ccccn2)c(C)c1 (centres undefined) | -31.7* | -0.2% | 3.7 | 3.2% | 0.3% | -8.1
Cc1nn2c(N3CCN(CCO)CC3)c3c(nc2c1-c1ccccc1)CCCC3 | -4.3 | -1.8% | -94.3* | 10.5% | 2.6% | 1.8
C#CCOCCOCCOCCNc1nc(N2CCN(C(=O)[C@H](CCCN=C(N)N)n3cc(C(N)[C@@H](C)CC)nn3)CC2)nc(N2CCN(C(=O)[C@H](CCCCN)n3cc([C@@H](N)[C@H](C)CC)nn3)CC2)n1 (some centres undefined) | 2.8 | 0.8% | 2.5 | 13.9% | 58µM* | -9.6
C#CCOCCOCCOCCNc1nc(N2CCN(C(=O)Cn3cc(CCO)nn3)CC2)nc(N2CCN(C(=O)[C@H](CCCCN)n3cc(CC(C)O)nn3)CC2)n1 (some centres undefined) | 2.2 | . | 11.0 | -1.5% | ? | -2.5
C#CCOCCOCCOCCNc1nc(N2CCN(C(=O)[C@H](CCCCN)n3cc(CC(C)O)nn3)CC2)nc(N2CCN(C(=O)[C@H](CCCCN)n3cc(CC(C)O)nn3)CC2)n1 (some centres undefined) | -0.8 | -4.9% | -76.4* | -18.2% | -0.3% | -2.2
O=C(COC(=O)C1CCN(c2ccc(C(F)(F)F)cn2)CC1)Nc1ncc(Cl)cc1Cl | -3.4 | -10.4% | -71.1* | 5.0% | 0.1% | 2.6

High-throughput results from PubChem BioAssay.
